Reference: US20050287565A1, “Methods, compositions and compound assays for inhibiting amyloid-beta protein production” (priority 2004, published 2005)

The chains behind the UniProt entries cited, without tags or fusion partners.
UniProt P25103, whole entry: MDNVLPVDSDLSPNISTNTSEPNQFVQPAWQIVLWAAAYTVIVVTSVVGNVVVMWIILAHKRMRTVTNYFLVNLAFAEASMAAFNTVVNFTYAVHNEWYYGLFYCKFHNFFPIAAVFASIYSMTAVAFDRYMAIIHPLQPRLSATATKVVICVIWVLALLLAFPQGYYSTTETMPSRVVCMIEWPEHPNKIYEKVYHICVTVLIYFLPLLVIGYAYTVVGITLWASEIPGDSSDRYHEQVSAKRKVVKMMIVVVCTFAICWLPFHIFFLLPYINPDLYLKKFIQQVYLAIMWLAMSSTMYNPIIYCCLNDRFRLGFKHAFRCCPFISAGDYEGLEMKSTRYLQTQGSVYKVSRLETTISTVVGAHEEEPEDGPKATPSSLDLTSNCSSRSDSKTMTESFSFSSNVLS

How the values were obtained:
TACR1 [1] = target: T1, TACR1 (Homo sapiens, UniProt P25103); experiment: TACR1 agonist validation in SH-SY5Y APPwt cells, amyloid beta ELISA; type: cell-based; settings: SH-SY5Y APPwt cells infected with Ad5/TACR1; increasing amounts of agonist, 24 h; concentration dependent
TACR1 [2] = target: T1, TACR1; experiment: TACR1 agonist and antagonist validation in Hek293 APPwt cells, amyloid beta ELISA; type: cell-based; settings: Hek293 APPwt cells infected with Ad5/TACR1; increasing amounts of agonist, 24 h; concentration dependent

Which results are given for substance P?
amount of amyloid beta 1-42 secreted in the medium (TACR1 [1]): increased; amount of amyloid beta x-42 secreted in the medium (TACR1 [1]): increased; amount of amyloid beta 1-42 secreted in the medium (TACR1 [2]): decreased; amount of amyloid beta x-42 secreted in the medium (TACR1 [2]): increased
